{"sequences": {"note": "Protein sequences, listed by entry. Tags and fused reporters are not part of them. Lines headed by an entry give the natural chain unless they say otherwise; changes in a name come on top.", "UniProt P32300, whole entry": "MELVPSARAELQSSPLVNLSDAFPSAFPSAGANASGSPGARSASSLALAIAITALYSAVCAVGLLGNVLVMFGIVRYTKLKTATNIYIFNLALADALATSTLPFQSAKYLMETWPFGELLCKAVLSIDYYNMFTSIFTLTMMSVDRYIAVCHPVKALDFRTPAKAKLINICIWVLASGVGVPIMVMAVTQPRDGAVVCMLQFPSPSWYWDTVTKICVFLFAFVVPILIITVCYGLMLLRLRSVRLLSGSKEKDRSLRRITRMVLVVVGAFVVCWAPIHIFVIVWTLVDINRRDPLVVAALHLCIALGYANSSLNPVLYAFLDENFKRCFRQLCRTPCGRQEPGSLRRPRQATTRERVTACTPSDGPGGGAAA"}, "source": "ChEMBL document CHEMBL2163219", "about": "“Synthesis and evaluation of aryl-naloxamide opiate analgesics targeting truncated exon 11-associated μ opioid receptor (MOR-1) splice variants” (J Med Chem, 2012)", "target": "Delta-type opioid receptor (Mus musculus, UniProt P32300)", "assay": "Displacement of [125I]-BNtxA from mouse cloned DOR-1 expressed in CHO cell membrane after 90 mins", "data": [{"smiles": "C=CCN1CC[C@]23c4c5ccc(O)c4O[C@H]2[C@H](NC(=O)c2ccc(-c4ccccc4)cc2)CC[C@@]3(O)[C@H]1C5", "values": [{"measurement": "Ki", "value": 19.2, "unit": "nM"}]}, {"smiles": "C=CCN1CC[C@]23c4c5ccc(O)c4O[C@H]2[C@H](NC(=O)CCCCCCCCCCCC)CC[C@@]3(O)[C@H]1C5", "values": [{"measurement": "Ki", "value": 15.2, "unit": "nM"}]}]}
